Assay results from ChEMBL document CHEMBL5214900, “Design, Synthesis, and Biological Evaluation of Membrane-Active Bakuchiol Derivatives as Effective Broad-Spectrum Antibacterial Agents” (J Med Chem, 2021).

Key:
Staphylococcus aureus [1] = experiment: Antibacterial activity against methicillin-resistant Staphylococcus aureus NCTC10442 assessed as inhibition of bacterial growth incubated for 24 hrs by CLSI based broth dilution method; format: functional
Pseudomonas aeruginosa = experiment: Antibacterial activity against Pseudomonas aeruginosa ATCC 9027 assessed as inhibition of bacterial growth incubated for 24 hrs by CLSI based broth dilution method; format: functional
Staphylococcus aureus [2] = experiment: Antibacterial activity against methicillin-resistant Staphylococcus aureus N315 assessed as inhibition of bacterial growth incubated for 24 hrs by CLSI based broth dilution method; format: functional
Escherichia coli = experiment: Antibacterial activity against Escherichia coli ATCC 25922 assessed as inhibition of bacterial growth incubated for 24 hrs by CLSI based broth dilution method; format: functional
[3] = Hemolytic activity in rabbit RBC measured after 1 hrs by multimode reader assay; format: toxicity, cell-based, Oryctolagus cuniculus, Erythrocyte; settings: rabbit red blood cells (erythrocytes)
Staphylococcus aureus [4] = experiment: Antibacterial activity against Staphylococcus aureus ATCC 29213 assessed as inhibition of bacterial growth incubated for 24 hrs by CLSI based broth dilution method; format: functional

CC[C@H](C)[C@H](NC(=O)CN)C(=O)NCC(=O)N[C@@H](C)C(=O)N[C@H](C(=O)N[C@@H](CC(C)C)C(=O)N[C@@H](CCCCN)C(=O)N[C@H](C(=O)N[C@@H](CC(C)C)C(=O)N[C@H](C(=O)N[C@H](C(=O)NCC(=O)N[C@@H](CC(C)C)C(=O)N1CCC[C@H]1C(=O)N[C@@H](C)C(=O)N[C@@H](CC(C)C)C(=O)N[C@H](C(=O)N[C@@H](CO)C(=O)N[C@@H](Cc1c[nH]c2ccccc12)C(=O)N[C@H](C(=O)N[C@@H](CCCCN)C(=O)N[C@@H](CCCNC(=N)N)C(=O)N[C@@H](CCCCN)C(=O)N[C@@H](CCCNC(=N)N)C(=O)N[C@@H](CCC(N)=O)C(=O)N[C@@H](CCC(N)=O)C(N)=O)[C@@H](C)CC)[C@@H](C)CC)[C@@H](C)O)[C@@H](C)O)C(C)C)C(C)C [MELITTIN] showed an MIC (Staphylococcus aureus [1]) of 3.12 mg/L (≈ 1.1 µM), an MIC (Pseudomonas aeruginosa) of 3.12 mg/L (≈ 1.1 µM) and an MIC (Staphylococcus aureus [2]) of 3.12 mg/L (≈ 1.1 µM). It also gave an MIC (Escherichia coli) of 3.12 mg/L (≈ 1.1 µM), an HC50 at 1 h [3] of 23.4 µg/mL and an MIC (Staphylococcus aureus [4]) of 3.12 mg/L (≈ 1.1 µM).

Converted amounts (≈) assume the structure as drawn.
